From US20260384438A1, “PYRROLOPYRIMIDINE CARBOXAMIDES” (published 2026)

Protein sequences, listed by entry. Tags and fused reporters are not part of them. Residues count along the entry.
UniProt Q15349, whole entry: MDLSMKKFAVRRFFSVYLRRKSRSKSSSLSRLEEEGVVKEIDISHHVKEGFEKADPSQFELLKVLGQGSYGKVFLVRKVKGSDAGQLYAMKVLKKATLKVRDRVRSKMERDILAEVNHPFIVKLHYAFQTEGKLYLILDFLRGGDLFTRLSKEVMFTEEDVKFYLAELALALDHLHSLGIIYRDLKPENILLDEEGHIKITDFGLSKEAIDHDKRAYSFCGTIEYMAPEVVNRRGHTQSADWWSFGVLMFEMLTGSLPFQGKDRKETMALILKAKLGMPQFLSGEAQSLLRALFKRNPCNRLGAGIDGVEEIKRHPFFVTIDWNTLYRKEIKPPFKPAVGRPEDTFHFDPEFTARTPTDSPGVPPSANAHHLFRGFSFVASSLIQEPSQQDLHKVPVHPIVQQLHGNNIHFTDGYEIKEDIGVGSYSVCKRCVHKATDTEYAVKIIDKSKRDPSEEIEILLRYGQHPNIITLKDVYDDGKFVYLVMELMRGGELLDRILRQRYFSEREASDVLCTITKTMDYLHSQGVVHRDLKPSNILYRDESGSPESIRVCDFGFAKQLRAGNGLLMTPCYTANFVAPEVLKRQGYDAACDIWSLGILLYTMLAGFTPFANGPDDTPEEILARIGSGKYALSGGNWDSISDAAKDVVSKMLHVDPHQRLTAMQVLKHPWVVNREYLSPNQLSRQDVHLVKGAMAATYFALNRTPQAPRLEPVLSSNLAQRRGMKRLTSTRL
UniProt P49759, whole entry: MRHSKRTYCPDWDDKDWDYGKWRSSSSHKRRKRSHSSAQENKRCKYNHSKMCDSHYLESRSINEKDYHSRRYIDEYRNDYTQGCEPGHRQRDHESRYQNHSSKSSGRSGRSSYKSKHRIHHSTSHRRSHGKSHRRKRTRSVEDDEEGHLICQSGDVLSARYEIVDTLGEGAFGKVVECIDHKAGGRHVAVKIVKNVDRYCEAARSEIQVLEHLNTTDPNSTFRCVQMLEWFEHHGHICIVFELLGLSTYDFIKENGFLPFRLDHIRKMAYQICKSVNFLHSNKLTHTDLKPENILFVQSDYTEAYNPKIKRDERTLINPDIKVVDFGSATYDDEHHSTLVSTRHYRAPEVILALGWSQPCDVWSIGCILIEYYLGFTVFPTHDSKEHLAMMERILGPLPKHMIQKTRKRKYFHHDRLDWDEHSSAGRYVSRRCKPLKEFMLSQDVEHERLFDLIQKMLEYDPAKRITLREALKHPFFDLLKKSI
UniProt P43250, whole entry: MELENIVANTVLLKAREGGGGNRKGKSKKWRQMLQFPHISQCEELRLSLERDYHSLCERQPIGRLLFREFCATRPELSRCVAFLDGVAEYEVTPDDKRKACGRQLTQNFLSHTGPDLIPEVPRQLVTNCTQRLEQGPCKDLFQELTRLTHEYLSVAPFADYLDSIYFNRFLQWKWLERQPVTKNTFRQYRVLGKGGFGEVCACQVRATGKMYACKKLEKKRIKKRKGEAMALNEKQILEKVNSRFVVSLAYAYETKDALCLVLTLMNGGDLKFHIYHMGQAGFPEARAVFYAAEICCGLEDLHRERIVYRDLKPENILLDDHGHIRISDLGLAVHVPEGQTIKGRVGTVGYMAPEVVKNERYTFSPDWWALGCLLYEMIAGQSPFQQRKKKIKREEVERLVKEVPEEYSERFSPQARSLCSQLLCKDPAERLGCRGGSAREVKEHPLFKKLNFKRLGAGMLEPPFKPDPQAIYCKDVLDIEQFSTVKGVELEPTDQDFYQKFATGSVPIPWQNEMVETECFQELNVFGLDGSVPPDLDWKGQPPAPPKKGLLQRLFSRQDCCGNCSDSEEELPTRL
UniProt Q07002, whole entry: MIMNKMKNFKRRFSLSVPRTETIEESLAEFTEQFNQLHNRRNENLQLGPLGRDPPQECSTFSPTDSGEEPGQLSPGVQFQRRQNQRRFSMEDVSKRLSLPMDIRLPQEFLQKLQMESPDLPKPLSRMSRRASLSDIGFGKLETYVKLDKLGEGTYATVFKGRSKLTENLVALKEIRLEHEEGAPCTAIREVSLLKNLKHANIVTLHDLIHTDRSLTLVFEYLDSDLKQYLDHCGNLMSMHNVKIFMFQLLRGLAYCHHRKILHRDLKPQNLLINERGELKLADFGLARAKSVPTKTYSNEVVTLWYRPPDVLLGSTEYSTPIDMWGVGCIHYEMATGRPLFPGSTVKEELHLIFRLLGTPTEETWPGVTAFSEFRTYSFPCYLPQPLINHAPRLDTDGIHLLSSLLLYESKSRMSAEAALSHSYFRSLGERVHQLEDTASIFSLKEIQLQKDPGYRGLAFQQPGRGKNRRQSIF
UniProt Q9P289, whole entry: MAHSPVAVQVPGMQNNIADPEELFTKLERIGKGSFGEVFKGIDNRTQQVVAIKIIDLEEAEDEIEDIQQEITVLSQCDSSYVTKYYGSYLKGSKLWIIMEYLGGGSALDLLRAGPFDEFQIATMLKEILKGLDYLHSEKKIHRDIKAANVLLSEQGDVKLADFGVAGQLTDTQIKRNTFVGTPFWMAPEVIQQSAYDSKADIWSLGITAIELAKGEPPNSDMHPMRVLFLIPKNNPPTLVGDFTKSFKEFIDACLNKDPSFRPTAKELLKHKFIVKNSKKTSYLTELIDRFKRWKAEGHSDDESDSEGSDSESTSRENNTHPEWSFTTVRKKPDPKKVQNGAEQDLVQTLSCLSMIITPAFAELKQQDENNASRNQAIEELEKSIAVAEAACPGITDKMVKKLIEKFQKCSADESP
UniProt Q9NR20, whole entry: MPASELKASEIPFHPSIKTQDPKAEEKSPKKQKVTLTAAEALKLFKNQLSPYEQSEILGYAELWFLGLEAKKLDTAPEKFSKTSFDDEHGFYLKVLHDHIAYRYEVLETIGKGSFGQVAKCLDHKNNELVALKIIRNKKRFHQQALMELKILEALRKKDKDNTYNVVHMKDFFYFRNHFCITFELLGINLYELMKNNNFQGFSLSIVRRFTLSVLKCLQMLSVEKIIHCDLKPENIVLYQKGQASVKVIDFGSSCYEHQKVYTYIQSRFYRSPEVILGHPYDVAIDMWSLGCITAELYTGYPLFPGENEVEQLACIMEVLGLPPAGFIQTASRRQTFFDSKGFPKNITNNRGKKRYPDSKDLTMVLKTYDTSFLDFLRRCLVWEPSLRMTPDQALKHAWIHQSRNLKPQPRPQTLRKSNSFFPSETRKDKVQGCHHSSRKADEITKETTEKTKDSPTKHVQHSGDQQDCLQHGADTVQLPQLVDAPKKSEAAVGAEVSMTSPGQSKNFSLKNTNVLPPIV
UniProt P31751, whole entry: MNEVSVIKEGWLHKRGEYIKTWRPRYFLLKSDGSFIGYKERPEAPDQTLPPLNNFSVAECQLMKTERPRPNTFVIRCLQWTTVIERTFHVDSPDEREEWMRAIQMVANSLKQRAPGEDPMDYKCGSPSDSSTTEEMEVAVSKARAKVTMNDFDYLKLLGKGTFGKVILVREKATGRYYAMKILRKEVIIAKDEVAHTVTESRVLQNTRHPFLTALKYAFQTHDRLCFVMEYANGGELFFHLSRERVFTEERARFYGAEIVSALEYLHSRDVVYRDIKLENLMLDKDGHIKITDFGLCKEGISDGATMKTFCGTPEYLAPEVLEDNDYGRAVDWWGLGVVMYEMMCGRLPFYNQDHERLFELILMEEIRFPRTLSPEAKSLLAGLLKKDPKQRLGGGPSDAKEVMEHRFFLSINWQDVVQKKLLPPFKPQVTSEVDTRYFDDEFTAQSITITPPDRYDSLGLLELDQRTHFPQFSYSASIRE
UniProt Q13164, whole entry: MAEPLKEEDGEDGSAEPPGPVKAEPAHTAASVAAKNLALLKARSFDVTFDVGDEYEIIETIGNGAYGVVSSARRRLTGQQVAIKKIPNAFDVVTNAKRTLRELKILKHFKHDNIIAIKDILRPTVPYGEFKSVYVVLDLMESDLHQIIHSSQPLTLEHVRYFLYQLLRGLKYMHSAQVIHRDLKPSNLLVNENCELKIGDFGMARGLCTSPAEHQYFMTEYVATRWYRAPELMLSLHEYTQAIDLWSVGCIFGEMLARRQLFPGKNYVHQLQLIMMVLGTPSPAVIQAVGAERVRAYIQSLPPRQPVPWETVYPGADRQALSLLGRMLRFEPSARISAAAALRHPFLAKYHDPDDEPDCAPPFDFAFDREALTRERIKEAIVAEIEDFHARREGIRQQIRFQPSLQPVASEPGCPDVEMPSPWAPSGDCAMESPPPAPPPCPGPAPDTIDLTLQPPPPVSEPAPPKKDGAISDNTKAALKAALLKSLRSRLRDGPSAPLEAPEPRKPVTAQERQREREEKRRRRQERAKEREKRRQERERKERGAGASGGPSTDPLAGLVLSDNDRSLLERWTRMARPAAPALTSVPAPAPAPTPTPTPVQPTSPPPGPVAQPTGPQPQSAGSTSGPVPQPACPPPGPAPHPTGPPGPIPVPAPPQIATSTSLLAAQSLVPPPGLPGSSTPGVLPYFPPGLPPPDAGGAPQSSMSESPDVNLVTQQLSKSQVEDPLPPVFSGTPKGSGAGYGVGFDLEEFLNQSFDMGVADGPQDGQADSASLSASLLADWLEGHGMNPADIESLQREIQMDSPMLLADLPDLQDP
UniProt Q06418, 41-890 limits assumed: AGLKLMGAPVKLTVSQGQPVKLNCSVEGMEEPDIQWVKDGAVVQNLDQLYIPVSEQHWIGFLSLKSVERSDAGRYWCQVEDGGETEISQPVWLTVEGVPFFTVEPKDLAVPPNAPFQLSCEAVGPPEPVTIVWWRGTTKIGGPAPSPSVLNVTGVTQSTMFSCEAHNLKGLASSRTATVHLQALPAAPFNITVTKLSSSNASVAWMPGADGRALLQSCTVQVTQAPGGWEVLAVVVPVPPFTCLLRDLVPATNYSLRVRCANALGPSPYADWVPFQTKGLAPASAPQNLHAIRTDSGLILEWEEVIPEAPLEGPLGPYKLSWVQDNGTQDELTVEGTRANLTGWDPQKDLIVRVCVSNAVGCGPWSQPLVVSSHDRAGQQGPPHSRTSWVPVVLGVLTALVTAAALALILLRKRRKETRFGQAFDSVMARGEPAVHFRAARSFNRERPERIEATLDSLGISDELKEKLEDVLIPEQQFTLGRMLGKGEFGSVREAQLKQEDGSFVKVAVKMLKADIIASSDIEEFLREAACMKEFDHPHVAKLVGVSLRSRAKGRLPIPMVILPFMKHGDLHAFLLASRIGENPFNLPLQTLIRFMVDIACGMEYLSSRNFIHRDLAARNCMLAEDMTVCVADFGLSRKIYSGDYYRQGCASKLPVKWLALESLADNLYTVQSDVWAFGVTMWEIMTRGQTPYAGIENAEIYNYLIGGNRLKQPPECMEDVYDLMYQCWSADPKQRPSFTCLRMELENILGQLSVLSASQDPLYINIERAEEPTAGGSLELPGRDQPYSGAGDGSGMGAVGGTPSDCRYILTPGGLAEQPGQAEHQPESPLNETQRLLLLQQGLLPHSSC
UniProt Q13470, whole entry: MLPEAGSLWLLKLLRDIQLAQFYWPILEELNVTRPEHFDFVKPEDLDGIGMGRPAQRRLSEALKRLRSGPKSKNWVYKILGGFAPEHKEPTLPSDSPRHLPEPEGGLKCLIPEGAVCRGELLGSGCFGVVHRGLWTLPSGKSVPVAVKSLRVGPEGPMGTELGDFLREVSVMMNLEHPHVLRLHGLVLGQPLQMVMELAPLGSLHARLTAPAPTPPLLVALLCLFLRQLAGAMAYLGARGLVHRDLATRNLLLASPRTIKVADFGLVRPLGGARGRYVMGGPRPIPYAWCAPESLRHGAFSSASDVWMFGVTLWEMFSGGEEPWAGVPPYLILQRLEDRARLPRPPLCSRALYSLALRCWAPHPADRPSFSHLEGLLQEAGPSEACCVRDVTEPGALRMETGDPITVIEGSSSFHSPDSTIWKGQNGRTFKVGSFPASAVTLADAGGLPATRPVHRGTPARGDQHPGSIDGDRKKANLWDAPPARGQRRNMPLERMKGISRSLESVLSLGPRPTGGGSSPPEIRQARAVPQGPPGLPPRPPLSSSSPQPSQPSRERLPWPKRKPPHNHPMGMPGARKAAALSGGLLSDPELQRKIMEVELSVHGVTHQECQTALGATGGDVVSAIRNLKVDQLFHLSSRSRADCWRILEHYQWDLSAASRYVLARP
UniProt O96017, whole entry: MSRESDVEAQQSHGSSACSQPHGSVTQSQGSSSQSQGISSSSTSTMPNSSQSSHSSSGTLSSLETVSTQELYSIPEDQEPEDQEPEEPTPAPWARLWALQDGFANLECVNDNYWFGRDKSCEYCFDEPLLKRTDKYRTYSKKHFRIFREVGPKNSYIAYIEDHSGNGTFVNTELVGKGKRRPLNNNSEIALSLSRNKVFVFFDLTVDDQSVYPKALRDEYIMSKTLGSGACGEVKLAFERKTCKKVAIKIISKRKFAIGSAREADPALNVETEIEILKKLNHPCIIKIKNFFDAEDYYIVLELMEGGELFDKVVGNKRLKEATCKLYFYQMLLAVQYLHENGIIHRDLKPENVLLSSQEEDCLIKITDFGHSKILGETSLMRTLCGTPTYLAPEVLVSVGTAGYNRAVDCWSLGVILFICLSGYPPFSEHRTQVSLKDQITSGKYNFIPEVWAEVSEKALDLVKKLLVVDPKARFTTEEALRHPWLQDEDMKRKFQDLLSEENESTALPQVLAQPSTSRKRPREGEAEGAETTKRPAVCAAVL

What was measured:
Experiment in all cases: Kinase profiling, Z-Lyte
[1] = biological target: RAF1 Y340D Y341D (Homo sapiens, UniProt P04049, Y340D/Y341D); settings: 10-point CR, ATP 100.000 μM
[2] = biological target: PAK4 (Homo sapiens, UniProt O96013); settings: 1 μM, KmATP
[3] = biological target: RPS6KB1 (p70S6K) (Homo sapiens, UniProt P23443); settings: 1 μM, KmATP
[4] = biological target: EPHB1 (Homo sapiens, UniProt P54762)
[5] = biological target: IGF1R (Homo sapiens, UniProt P08069); settings: 1 μM, KmATP
[6] = biological target: NTRK1 (TRKA) (Homo sapiens, UniProt P04629); settings: 1 μM, KmATP
[7] = biological target: AMPK A2/B1/G1 (Homo sapiens, UniProt P54646); settings: 1 μM, KmATP
[8] = biological target: LCK (Homo sapiens, UniProt P06239)
[9] = biological target: AURKA (Aurora A) (Homo sapiens, UniProt O14965); settings: 1 μM, KmATP
[10] = biological target: PRKCB1 (PKC beta I) (Homo sapiens, UniProt P05771); settings: 1 μM, KmATP
[11] = biological target: NEK1 (Homo sapiens, UniProt Q96PY6); settings: 1 μM, KmATP
[12] = biological target: RPS6KA2 (RSK3) (Homo sapiens, UniProt Q15349); settings: 1 μM, KmATP
[13] = biological target: NEK6 (Homo sapiens, UniProt Q9HC98); settings: 1 μM, KmATP
[14] = biological target: CLK1 (Homo sapiens, UniProt P49759); settings: 1 μM, KmATP
[15] = biological target: GRK6 (Homo sapiens, UniProt P43250); settings: 1 μM, KmATP
[16] = biological target: NEK2 (Homo sapiens, UniProt P51955); settings: 1 μM, KmATP
[17] = biological target: CDK18/cyclin Y (Homo sapiens, UniProt Q07002); settings: 1 μM, KmATP
[18] = biological target: CLK3 (Homo sapiens, UniProt P49761); settings: 1 μM, KmATP
[19] = biological target: MST4 (Homo sapiens, UniProt Q9P289); settings: 1 μM, KmATP
[20] = biological target: SRPK1 (Homo sapiens, UniProt Q96SB4); settings: 1 μM, KmATP
[21] = biological target: KDR (VEGFR2) (Homo sapiens, UniProt P35968); settings: 1 μM, KmATP
[22] = biological target: DYRK4 (Homo sapiens, UniProt Q9NR20); settings: 1 μM, KmATP
[23] = biological target: PAK3 (Homo sapiens, UniProt O75914); settings: 1 μM, KmATP
[24] = biological target: AKT2 (PKB beta) (Homo sapiens, UniProt P31751); settings: 1 μM, KmATP
[25] = biological target: RPS6KA5 (MSK1) (Homo sapiens, UniProt O75582); settings: 1 μM, KmATP
[26] = biological target: MAPK7 (ERK5) (Homo sapiens, UniProt Q13164); settings: 1 μM, KmATP
[27] = biological target: FES (FPS) (Homo sapiens, UniProt P07332); settings: 1 μM, KmATP
[28] = biological target: AKT3 (PKB gamma) (Homo sapiens, UniProt Q9Y243); settings: 1 μM, KmATP
[29] = biological target: CAMK1D (Homo sapiens, UniProt Q8IU85); settings: 1 μM, KmATP
[30] = biological target: TYRO3 (RSE) (Homo sapiens, UniProt Q06418); settings: 1 μM, KmATP
[31] = biological target: PAK2 (PAK65) (Homo sapiens, UniProt Q13177); settings: 1 μM, KmATP
[32] = biological target: PLK1 (Homo sapiens, UniProt P53350); settings: 1 μM, KmATP
[33] = biological target: TNK1 (Homo sapiens, UniProt Q13470); settings: 1 μM, KmATP
[34] = biological target: ROCK1 (Homo sapiens, UniProt Q13464); settings: 1 μM, KmATP
[35] = biological target: SBK1 (Homo sapiens, UniProt Q52WX2); settings: 1 μM, KmATP
[36] = biological target: PRKCD (PKC delta) (Homo sapiens, UniProt Q05655); settings: 1 μM, KmATP
[37] = biological target: CHEK2 (CHK2) (Homo sapiens, UniProt O96017); settings: 1 μM, KmATP
[38] = biological target: EPHAS (Homo sapiens, UniProt P54756); settings: 10-point CR, ATP 150.000 μM
[39] = biological target: KSR2 (Homo sapiens, UniProt Q6VAB6); settings: 1 μM, KmATP

Cc1nc(C(F)(F)F)c2c(C(N)=O)c(N)n(-c3c(C)ccc(O)c3C)c2n1 (single isomer, unassigned)
IC50 [1]: 83 nM | MEAN INHIBITION [2]: −12.759% | MEAN INHIBITION [3]: 1.466% | MEAN INHIBITION ([4]; 1 μM, KmATP): 63.359% | IC50 ([4]; 10-point CR, ATP 50.000 μM): 361 nM | MEAN INHIBITION [5]: 1.081% | MEAN INHIBITION [6]: 12.557% | MEAN INHIBITION [7]: 1.980% | MEAN INHIBITION ([8]; 1 μM, KmATP): 45.731% | IC50 ([8]; 10-point CR, ATP 50.000 μM): 867 nM | MEAN INHIBITION [9]: 3.813% | MEAN INHIBITION [10]: 0.364% | MEAN INHIBITION [11]: 6.683% | MEAN INHIBITION [12]: 31.595% | MEAN INHIBITION [13]: 1.053% | MEAN INHIBITION [14]: 0.999% | MEAN INHIBITION [15]: 2.821% | MEAN INHIBITION [16]: 15.105% | MEAN INHIBITION [17]: 5.763% | MEAN INHIBITION [18]: 5.160% | MEAN INHIBITION [19]: 6.444% | MEAN INHIBITION [20]: 4.608% | MEAN INHIBITION [21]: 1.359% | MEAN INHIBITION [22]: 0.423% | MEAN INHIBITION [23]: 2.463% | MEAN INHIBITION [24]: 2.960% | MEAN INHIBITION [25]: 8.353% | MEAN INHIBITION [26]: −0.819% | MEAN INHIBITION [27]: 1.521% | MEAN INHIBITION [28]: 2.961% | MEAN INHIBITION [29]: 6.089% | MEAN INHIBITION [30]: 2.535% | MEAN INHIBITION [31]: 5.449% | MEAN INHIBITION [32]: 2.360% | MEAN INHIBITION [33]: 2.840% | MEAN INHIBITION [34]: 2.834% | MEAN INHIBITION [35]: 2.962% | MEAN INHIBITION [36]: 3.258% | MEAN INHIBITION [37]: 3.471% | IC50 [38]: 460 nM | MEAN INHIBITION [39]: 3.346%
